Test [1] addresses T1, GC-A (Rattus norvegicus, UniProt P18910).
T1 construct: Evidence of homologous desensitization of endogenous GC-A- and GC-B-mediated signaling in GH3 cells; endogenous in cells; host or cells: GH3 rat somatolactotrope cells
T1 sequence (P18910 29-1057): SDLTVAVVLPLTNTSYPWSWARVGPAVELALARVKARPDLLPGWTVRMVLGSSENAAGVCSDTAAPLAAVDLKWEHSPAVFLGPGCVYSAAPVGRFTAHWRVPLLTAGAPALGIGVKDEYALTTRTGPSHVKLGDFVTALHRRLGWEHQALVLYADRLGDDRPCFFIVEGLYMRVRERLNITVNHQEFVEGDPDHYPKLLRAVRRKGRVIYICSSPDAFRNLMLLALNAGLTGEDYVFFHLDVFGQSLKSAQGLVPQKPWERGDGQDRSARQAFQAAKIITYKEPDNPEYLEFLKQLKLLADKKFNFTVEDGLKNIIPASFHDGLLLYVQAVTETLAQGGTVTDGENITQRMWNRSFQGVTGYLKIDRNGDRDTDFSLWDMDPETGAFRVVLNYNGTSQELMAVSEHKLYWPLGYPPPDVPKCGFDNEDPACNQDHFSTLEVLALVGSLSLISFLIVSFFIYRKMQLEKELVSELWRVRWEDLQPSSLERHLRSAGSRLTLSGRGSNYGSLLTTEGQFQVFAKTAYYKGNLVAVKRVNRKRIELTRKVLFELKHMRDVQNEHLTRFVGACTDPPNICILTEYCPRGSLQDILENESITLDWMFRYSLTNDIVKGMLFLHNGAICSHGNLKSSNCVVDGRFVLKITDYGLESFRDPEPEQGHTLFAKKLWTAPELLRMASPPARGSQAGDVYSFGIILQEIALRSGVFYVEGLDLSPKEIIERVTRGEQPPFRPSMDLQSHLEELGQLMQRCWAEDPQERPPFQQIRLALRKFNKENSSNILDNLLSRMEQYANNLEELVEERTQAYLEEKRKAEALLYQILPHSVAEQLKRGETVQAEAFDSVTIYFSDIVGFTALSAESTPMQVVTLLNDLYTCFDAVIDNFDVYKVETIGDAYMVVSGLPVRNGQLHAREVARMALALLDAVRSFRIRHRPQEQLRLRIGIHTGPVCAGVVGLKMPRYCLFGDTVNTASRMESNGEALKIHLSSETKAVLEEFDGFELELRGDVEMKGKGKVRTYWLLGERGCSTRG
Kind of test: Effect of natriuretic peptide pre-treatment on ANP-stimulated (GC-A) cGMP accumulation in GH3 cells. To be noted: Fig. 3b. Format: cell-based. The protocol:
Having established that GC-B signaling but not that of GC-A receptors, underwent rapid homologous desensitization, we next examined the effect of prolonged exposure of each receptor to its specific ligand. GH3 cells pre-treated with either ANP or CNP for 0 (control) to 6 h reduced the response to a subsequent 15-min treatment of ANP or CNP (with IBMX). […] The amount of cGMP measured from the 15-min pre-treatment sample was reduced by 39.6 ± 0.002 % (***P < 0.001). This effect was maintained up to the 6-h pre-treatment with CNP, which was reduced by 37.9 ± 7.1 % compared with the control (***P < 0.001).
Fig. 3 Effect of chronic exposure to CNP and ANP on GC-B- and GC-A-dependent cGMP accumulation in GH3 cells. Cells were initially treated with (a) 100 nM CNP or (b) 100 nM ANP in PSS without IBMX for 0 to 6 h. The medium was removed and replaced with 100 nM CNP (a) or 100 nM ANP (b) for 15 min in the presence of 1 mM IBMX. […]
In similar experiments designed to examine the effect of ANP pre-exposure to GC-A activity, a significant reduction in cGMP accumulation was observed within 30 min of ANP pre-treatment (by 28.9 ± 3.1 % compared with the control, *P < 0.05). […] In order to test the receptor specificity of the observed down-regulation of GC-B upon pre-treatment with CNP and of GC-A upon pre-treatment with ANP, the effects of ANP on GC-B and CNP on GC-A desensitization were determined. […]

Test [2] has as its target T1, GC-A. The test can be described thus: ANP time-course of total cGMP accumulation (rapid homologous desensitization) in GH3 cells. The format is cell-based. To be noted: 100 nM ANP, 1 mM IBMX. The protocol:
To characterize the activity of these receptors further , a series of experiments was performed to examine mechanisms of receptor desensitization. Total cGMP accumulation was measured to determine the changes in activity of the GC-A and GC-B receptors when treated over a short time-course with their native ligands, namely ANP and CNP, respectively. GH3 cells were plated at 3 × 10^5 cells/well in a 24-well plate, treated with 100 nM of either ANP or CNP in the presence of the phosphodiesterase inhibitor IBMX (1 mM) for 0 to 15 min and assayed for total cGMP concentration (Fig. 2a, b). […] In another experiment performed with 100 nM ANP instead of CNP, a rapid increase in cGMP accumulation (7.91 ± 0.9 to 164.31 ± 9.1pmol/ml per milligram protein) occurred between 0 and 5 min.
Fig. 2 Rapid homologous desensitization of CNP-dependent but not ANP-dependent cGMP accumulation in GH3 cells. Cells were treated with PSS containing either (a) 100 nM CNP or (b) 100 nM ANP for 0–15 min in the presence of 1 mM IBMX.

Take `CC[C@H](C)[C@@H]1NC(=O)[C@H](CCCNC(=N)N)NC(=O)[C@H](CC(=O)O)NC(=O)[C@H]([C@@H](C)CC)NC(=O)[C@H](CCCNC(=N)N)NC(=O)CNC(=O)CNC(=O)[C@H](Cc2ccccc2)NC(=O)[C@@H](NC(=O)[C@H](CO)NC(=O)[C@H](CO)NC(=O)[C@H](CCCNC(=N)N)NC(=O)[C@H](CCCNC(=N)N)NC(=O)[C@H](CC(C)C)NC(=O)[C@@H](N)CO)CSSC[C@@H](C(=O)N[C@@H](CC(N)=O)C(=O)N[C@@H](CO)C(=O)N[C@@H](Cc2ccccc2)C(=O)N[C@@H](CCCNC(=N)N)C(=O)N[C@@H](Cc2ccc(O)cc2)C(=O)O)NC(=O)CNC(=O)[C@H](CC(C)C)NC(=O)CNC(=O)[C@H](CO)NC(=O)[C@H](CCC(N)=O)NC(=O)[C@H](C)NC(=O)CNC1=O` [ANP, atrial natriuretic peptide]: the “reduction of ANP-stimulated cGMP vs control, 15-min pre-treatment” value on GC-A [1] (100 nM ANP pre-treatment 15 min, then 100 nM ANP 15 min with 1 mM IBMX, ns, P > 0.05) is given as “did not show a significant reduction in cGMP accumulation compared with the control”. Moreover, the “duration of the inhibitory effect on ANP-stimulated cGMP” value at GC-A [1] (100 nM ANP pre-treatment 30 min to 6 h, *P < 0.05) is recorded as “maintained throughout the 6-h pre-treatment”. Moreover, on GC-A [2] (0 min (start of time-course), mean ± SEM, n = 3 in triplicate), the “total cGMP accumulation, 0 min” value is 7.91 ± 0.9 pmol/ml per milligram protein. The “maintenance of the initial rate of cGMP accumulation” value at GC-A [2] (0-15 min) is “initial rate of cGMP accumulation was maintained for at least 15 min”. Besides, the “total cGMP accumulation, 5 min” value at GC-A [2] (5 min, mean ± SEM, n = 3 in triplicate) is 164.31 ± 9.1 pmol/ml per milligram protein.
